This note sets out measurements from PubChem BioAssay (NCI).

Only a part is listed here, and it is no random draw. Some salts and complexes are drawn in separate pieces, as the source files them; their charges need not balance. Where a structure was tested more than once in an assay, its records may differ in their call. The source made the active and inactive calls. Cut-off read from the data, not from the text of the source: active = growth inhibition above about 70%; inactive = the rest.

A short description of assay [1]: NCI Yeast Anticancer Drug Screen. Data for the rad50 strain (AID 155).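 Note: 0% = growth of vehicle-only cultures of the same strain.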 As to conditions: S. cerevisiae rad50 strain growth inhibition, stronger effect = higher value.
Assay [2] can be described thus: NCI Yeast Anticancer Drug Screen. Data for the mec2-1 strain (AID 157). The note with it: S. cerevisiae mec2-1 strain, stronger effect = higher value.
Assay [3] can be described thus: NCI Yeast Anticancer Drug Screen. Data for the sgs1 mgt1 strain (AID 161).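 Note: 0% = growth of cultures given vehicle only.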 The note with it: S. cerevisiae sgs1 mgt1 strain, stronger effect = higher value.
Assay [4] is described as follows: NCI Yeast Anticancer Drug Screen. Data for the cln2 rad14 strain (AID 165).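 Note: 0% = growth equal to vehicle treated cultures.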 The note with it: S. cerevisiae cln2 rad14 strain, stronger effect = higher value.
Assay [5] in a line: NCI Yeast Anticancer Drug Screen. Data for the bub3 strain (AID 167). As to conditions: S. cerevisiae bub3 mutant strain, stronger effect = higher value.
A short description of assay [6]: NCI Yeast Anticancer Drug Screen. Data for the mlh1 rad18 strain (AID 175). The note with it: S. cerevisiae mlh1 rad18 strain growth inhibition, stronger effect = higher value.
Assay [7] in a line: NCI Yeast Anticancer Drug Screen. Data for the wt1 strain (AID 149).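 Note: 0% = growth of vehicle-treated wt1 cultures.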 The note with it: S. cerevisiae wt1 strain (SPY 50644) growth inhibition, stronger effect = higher value. A digest of the protocol:
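wt1 strain grown with compound or vehicle; inhibition taken from the growth difference.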

Assay [8] can be described thus: NCI Yeast Anticancer Drug Screen. Data for the rad18 strain (AID 177). As to conditions: S. cerevisiae rad18 mutant growth inhibition, stronger effect = higher value. Summed up:
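Vehicle-treated cultures served as the baseline for scoring compound-induced growth inhibition in DNA-repair-mutant yeast.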

Setting [9] is: at 5.0 µM (retest, dose inferred, filed as 0.5).
Where [10] appears, read: at 50.0 µM (retest, dose inferred, filed as 5.0).

For `[Au].[C-]#N.[C-]#N`, the growth inhibition in assay [1] (at 1.2 µM) was inactive: 6%; in assay [1] (at 3.7 µM), inactive: -9%; in assay [1] (setting [9]) it was inactive: 18%; in assay [1] (at 11.0 µM), inactive: -10%; in assay [1] (at 33.0 µM), inactive: 4%; in assay [1] (setting [10]), inactive: 41%. Further, the growth inhibition in assay [1] (at 50.0 µM) is inactive: 6.75%; in assay [1] (at 100.0 µM) it was inactive: 11%; in assay [2] (at 1.2 µM), inactive: -8%; in assay [2] (at 3.7 µM), inactive: 3%; in assay [2] (setting [9]), inactive: 28%; in assay [2] (at 11.0 µM) it was inactive: 34%. Besides, the growth inhibition in assay [2] (at 33.0 µM) was active: 92%; in assay [2] (setting [10]), active: 98%; in assay [2] (at 50.0 µM), active: 87.2%; in assay [2] (at 100.0 µM) it was active: 95%; in assay [3] (setting [9]), inactive: 17%; in assay [3] (setting [10]), inactive: 48%. Moreover, the growth inhibition in assay [3] (at 50.0 µM) is inactive: -9.1%; in assay [4] (setting [9]) it was inactive: 4%; in assay [4] (setting [10]), inactive: 29%; in assay [4] (at 50.0 µM) it was inactive: -1.2%; in assay [5] (at 1.2 µM) it was inactive: -2%; in assay [5] (at 3.7 µM) it was inactive: -9%. The growth inhibition is inactive: -8% in assay [5] (setting [9]); inactive: -18% in assay [5] (at 11.0 µM); inactive: -16% in assay [5] (at 33.0 µM); inactive: 5% in assay [5] (setting [10]); inactive: -20.9% in assay [5] (at 50.0 µM); inactive: 4% in assay [5] (at 100.0 µM). For the same molecule, the values for the growth inhibition in assay [6] (setting [9]), in assay [6] (setting [10]) and in assay [6] (at 50.0 µM) were inactive: 25%, inactive: 42% and inactive: -9.1%, respectively.
Take `O=[N+]([O-])c1ccc(Sc2ccc([N+](=O)[O-])cc2[N+](=O)[O-])c([N+](=O)[O-])c1`: the growth inhibition is inactive: 45% in assay [1] (setting [9]); active: 98% in assay [1] (setting [10]); active: 91.1% in assay [1] (at 50.0 µM); inactive: 46% in assay [2] (setting [9]); active: 100% in assay [2] (setting [10]); active: 93.8% in assay [2] (at 50.0 µM). Further, the growth inhibition in assay [3] (setting [9]) is inactive: 55%; in assay [3] (setting [10]), active: 99%; in assay [3] (at 50.0 µM), active: 93.9%; in assay [4] (setting [9]), inactive: 42%; in assay [4] (setting [10]), active: 98%; in assay [4] (at 50.0 µM) it was active: 91.4%. In addition, the growth inhibition in assay [5] (setting [9]) was inactive: 51%; in assay [5] (setting [10]), active: 99%; in assay [5] (at 50.0 µM) it was active: 91.7%; in assay [6] (setting [9]), active: 74%; in assay [6] (setting [10]), active: 99%; in assay [6] (at 50.0 µM) it was active: 90.7%.
As for `[Au+].[Au+].c1ccc([PH+](c2ccccc2)c2ccccc2)cc1.c1ccc([PH+](c2ccccc2)c2ccccc2)cc1.n1n[n-]c(-c2nnn[n-]2)n1`, the growth inhibition was inactive: -9% in assay [7] (at 1.2 µM); inactive: 14% in assay [7] (at 3.7 µM); active: 92% in assay [7] (at 11.0 µM); active: 99% in assay [7] (at 33.0 µM); active: 99% in assay [7] (at 100.0 µM); inactive: -2% in assay [1] (at 1.2 µM). For the same molecule, the growth inhibition is inactive: 53% in assay [1] (at 3.7 µM); active: 99% in assay [1] (setting [9]); active: 99% in assay [1] (at 11.0 µM); active: 99% in assay [1] (at 33.0 µM); active: 98% in assay [1] (setting [10]); active: 97.4% in assay [1] (at 50.0 µM). In addition, the growth inhibition was active: 99% in assay [1] (at 100.0 µM); inactive: -6% in assay [2] (at 1.2 µM); active: 80% in assay [2] (at 3.7 µM); active: 99% in assay [2] (setting [9]); active: 96% in assay [2] (at 11.0 µM); active: 98% in assay [2] (at 33.0 µM). In addition, the growth inhibition in assay [2] (setting [10]) was active: 99%; in assay [2] (at 50.0 µM), active: 95.3%; in assay [2] (at 100.0 µM) it was active: 98%; in assay [3] (setting [9]), active: 98%; in assay [3] (setting [10]), active: 98%; in assay [3] (at 50.0 µM) it was active: 95.6%. Further, the growth inhibition in assay [4] (setting [9]) was active: 81%; in assay [4] (setting [10]) it was active: 98%; in assay [4] (at 50.0 µM), active: 96.6%; in assay [5] (at 1.2 µM), inactive: -14%; in assay [5] (at 3.7 µM) it was inactive: 14%; in assay [5] (setting [9]), active: 88%. The growth inhibition was active: 98% in assay [5] (at 11.0 µM); active: 99% in assay [5] (at 33.0 µM); active: 98% in assay [5] (setting [10]); active: 89.8% in assay [5] (at 50.0 µM); active: 99% in assay [5] (at 100.0 µM); active: 98% in assay [6] (setting [9]). For the same molecule, the growth inhibition in assay [6] (setting [10]) is active: 98%; in assay [6] (at 50.0 µM), active: 97.9%; in assay [8] (at 1.2 µM), inactive: 24%; in assay [8] (at 3.7 µM), inactive: 57%; in assay [8] (at 11.0 µM), active: 99%; in assay [8] (at 33.0 µM) it was active: 99%. The growth inhibition in assay [8] (at 100.0 µM) is active: 98%.
As for `CC12CCC3(C)OCC(COC(=O)C(O)(c4ccccc4)C4CCCCC4)(CO1)N23` (stereo unspecified), the growth inhibition in assay [1] (setting [9]) was inactive: 7%; in assay [1] (setting [10]), inactive: 69%; in assay [1] (at 50.0 µM), active: 92.6%; in assay [2] (setting [9]), inactive: -2%; in assay [2] (setting [10]) it was inactive: 7%; in assay [2] (at 50.0 µM), active: 95.2%. Moreover, the growth inhibition in assay [3] (setting [9]) is inactive: 0%; in assay [3] (setting [10]), inactive: 47%; in assay [3] (at 50.0 µM), active: 82.6%; in assay [4] (setting [9]) it was inactive: 0%; in assay [4] (setting [10]), inactive: 8%; in assay [4] (at 50.0 µM) it was active: 91.3%. The growth inhibition was inactive: 1% in assay [5] (setting [9]); inactive: 33% in assay [5] (setting [10]); active: 98.8% in assay [5] (at 50.0 µM); inactive: -1% in assay [6] (setting [9]); inactive: 21% in assay [6] (setting [10]); active: 90.4% in assay [6] (at 50.0 µM).
Consider `O=[N+]([O-])c1nc(Br)n(F)c1[N+](=O)[O-]`, for which the growth inhibition in assay [1] (setting [9]) is inactive: 21%; in assay [1] (setting [10]) it was inactive: 29%; in assay [1] (at 50.0 µM), inactive: 25.4%; in assay [2] (setting [9]), inactive: 18%; in assay [2] (setting [10]) it was inactive: 33%; in assay [2] (at 50.0 µM), inactive: 17.3%. Also, the growth inhibition in assay [3] (setting [9]) is inactive: 28%; in assay [3] (setting [10]) it was inactive: 66%; in assay [3] (at 50.0 µM), active: 91.7%; in assay [4] (setting [9]), inactive: 19%; in assay [4] (setting [10]), inactive: -3%; in assay [4] (at 50.0 µM), active: 91%. Besides, the growth inhibition in assay [5] (setting [9]) was inactive: 18%; in assay [5] (setting [10]) it was inactive: 3%; in assay [5] (at 50.0 µM) it was active: 89.2%; in assay [6] (setting [9]) it was inactive: 29%; in assay [6] (setting [10]) it was inactive: 49%; in assay [6] (at 50.0 µM) it was inactive: 34.6%.
As to `O=[N+]([O-])C1([N+](=O)[O-])CCC([N+](=O)[O-])([N+](=O)[O-])c2nn(-c3ccccc3)nc21`, the growth inhibition in assay [1] (setting [9]) is inactive: 21%; in assay [1] (setting [10]) it was active: 85%; in assay [1] (at 50.0 µM) it was inactive: 69%; in assay [2] (setting [9]), inactive: 16%; in assay [2] (setting [10]), inactive: 65%; in assay [2] (at 50.0 µM), inactive: 39.2%. Further, the growth inhibition in assay [3] (setting [9]) is inactive: 28%; in assay [3] (setting [10]), active: 77%; in assay [3] (at 50.0 µM) it was active: 78.7%; in assay [4] (setting [9]), inactive: 17%; in assay [4] (setting [10]), inactive: 59%; in assay [4] (at 50.0 µM), inactive: 66.5%. In addition, the growth inhibition in assay [5] (setting [9]) is inactive: 18%; in assay [5] (setting [10]), inactive: 69%; in assay [5] (at 50.0 µM) it was inactive: 65%; in assay [6] (setting [9]), inactive: 28%; in assay [6] (setting [10]), active: 81%; in assay [6] (at 50.0 µM), active: 74.7%.
In the case of `CCCCCCCCCCCCCCCC[C@H]1C[N+](C)(C)CCO[P@](C)(=O)O1`, the growth inhibition in assay [1] (setting [9]) is inactive: 26%; in assay [1] (setting [10]) it was active: 99%; in assay [1] (at 50.0 µM) it was active: 90.5%; in assay [2] (setting [9]) it was inactive: 60%; in assay [2] (setting [10]), active: 99%; in assay [2] (at 50.0 µM) it was active: 92%. The growth inhibition was active: 97% in assay [3] (setting [9]); active: 98% in assay [3] (setting [10]); active: 91.2% in assay [3] (at 50.0 µM); inactive: 32% in assay [4] (setting [9]); active: 97% in assay [4] (setting [10]); active: 91.2% in assay [4] (at 50.0 µM). For the same molecule, the growth inhibition in assay [5] (setting [9]) was inactive: 39%; in assay [5] (setting [10]) it was active: 98%; in assay [5] (at 50.0 µM) it was active: 89.2%; in assay [6] (setting [9]) it was inactive: 40%; in assay [6] (setting [10]), active: 99%; in assay [6] (at 50.0 µM), active: 90.7%.
